The numbers were not newly measured in paper PMC4770307, “New Synthetic Routes to Triazolo-benzodiazepine Analogues: Expanding the Scope of the Bump-and-Hole Approach for Selective Bromo and Extra-Terminal (BET) Bromodomain Inhibition” (Journal of Medicinal Chemistry, 2015), which cites them from elsewhere.

Broadly, the pKd is −log10 of the Kd, conventionally taken in molar units.

Each structure is given as a SMILES string. pKd: −log10 of the molar value.

The target of the data set is BET bromodomains. As to conditions: across BET bromodomains; cited from earlier work.

Take `CCNC(=O)C[C@@H]1N=C(c2ccc(Cl)cc2)c2cc(OC)ccc2-n2c(C)nnc21` [I-BET762 (1)]: the pKd is 6.43 to 7.30.
